From ChEMBL document CHEMBL1221219, “Selective blockade of 2-arachidonoylglycerol hydrolysis produces cannabinoid behavioral effects” (Nat Chem Biol, 2009)

Tested on: Mus musculus
Experiment: Inhibition of MAGL in C57B1/6J mouse brain membrane assessed as increase in 2-AG level at 16 mg/kg, ip upto 8 hrs by competitive activity-based protein profiling method relative to control
Type: functional
Details: route intraperitoneal

## O=C(Oc1ccc([N+](=O)[O-])cc1)N1CCC(C(O)(c2ccc3c(c2)OCO3)c2ccc3c(c2)OCO3)CC1
  fold change (FC): 7
